Source: patent publication US6783949B1, “Processes for determining whether a test substance contains lipases or lipase inhibitors” (Aventis Pharma Deutschland GmbH, priority 1999, dated 2004)

Sequences of proteins named here, by UniProt entry; tags and fusion partners are left off. Residues count along the entry.
UniProt P15304, 301-1068: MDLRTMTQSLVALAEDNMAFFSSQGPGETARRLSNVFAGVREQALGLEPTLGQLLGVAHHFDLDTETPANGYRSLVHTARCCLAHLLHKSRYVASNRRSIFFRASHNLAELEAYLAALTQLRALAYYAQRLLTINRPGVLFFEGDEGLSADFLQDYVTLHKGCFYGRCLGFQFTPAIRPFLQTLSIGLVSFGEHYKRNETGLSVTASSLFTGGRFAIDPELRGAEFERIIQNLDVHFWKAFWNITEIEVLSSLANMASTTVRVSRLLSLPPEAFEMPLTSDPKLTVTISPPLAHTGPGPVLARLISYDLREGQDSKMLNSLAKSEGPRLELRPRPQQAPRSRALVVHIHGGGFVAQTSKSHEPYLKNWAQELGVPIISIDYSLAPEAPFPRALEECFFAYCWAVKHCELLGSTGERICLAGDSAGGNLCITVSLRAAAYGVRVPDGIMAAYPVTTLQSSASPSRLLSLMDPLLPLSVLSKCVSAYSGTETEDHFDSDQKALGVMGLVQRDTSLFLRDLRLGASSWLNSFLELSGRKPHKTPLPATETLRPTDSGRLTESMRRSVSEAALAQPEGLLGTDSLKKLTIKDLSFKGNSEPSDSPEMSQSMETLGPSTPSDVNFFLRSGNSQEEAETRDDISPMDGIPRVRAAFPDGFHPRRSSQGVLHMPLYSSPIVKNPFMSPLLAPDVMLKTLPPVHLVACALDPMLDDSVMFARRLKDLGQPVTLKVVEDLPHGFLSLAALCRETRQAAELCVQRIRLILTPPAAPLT

Legend:
HSL [1] = biological target: T1, HSL (Rattus norvegicus, UniProt P15304); experiment: Direct NAG assay (released NBD-FA, TLC/fluorimetry); details: read-out: IC50, NBD-FA released; Example 5, Table 5; 20 μg HSL, 60 min; n=6, mean±SD
HSL [2] = biological target: T1, HSL; experiment: PNPB assay; details: read-out: IC50, PNPB assay; Example 6, Table 6; n=5, mean±SD
HSL [3] = biological target: T1, HSL; experiment: Tributyrin assay; details: read-out: IC50, Tributyrin assay; Example 6, Table 6; n=5, mean±SD
HSL [4] = biological target: T1, HSL; experiment: Indirect NAG assay (extinction increase at 481 nm); details: read-out: IC50, NAG assay, 20 μg HSL, 60 min
HSL [5] = biological target: T1, HSL; experiment: TAG assay ([3H]trioleoylglycerol cleavage); details: read-out: IC50, TAG assay
[6] = Example 5, Table 5, n=6, mean±SD
[7] = Example 6, Table 6, n=5, mean±SD

Structure (SMILES) | IC50 (HSL [1]) | IC50 (HSL [2]) | IC50 (HSL [3]) | IC50 (HSL [4]; [6]) | IC50 (HSL [4]; [7]) | IC50 (HSL [5]; [6]) | IC50 (HSL [5]; [7])
CCCCCC(=O)OCC(COC(=O)CCCCCCCCCCCNc1ccc([N+](=O)[O-])c2nonc12)OC(=O)CCCCC (centres unmarked) [Compound (5), 2-Hexanoyloxy-3-[12-(7-nitrobenzo[1,2,5]oxadiazol-4-ylamino)-dodecanoyloxy]propyl hexanoate] | 3.58 µM | 10.5 µM | 4.09 µM | 2.79 µM | 2.96 µM | 18.9 µM | 25.3 µM
CC(=O)OCC(COC(=O)CCCCCCCCCCCNc1ccc([N+](=O)[O-])c2nonc12)OC(C)=O (centres unmarked) [Compound (4), 2-Acetoxy-3-[12-(7-nitrobenzo[1,2,5]oxadiazol-4-ylamino)-dodecanoyloxy]propyl acetate] | 2.98 µM | 93.6 µM | > 100 µM | 2.45 µM | 3.18 µM | 18.2 µM | 20.4 µM
O=C(O)CCCCCCCCCCCNc1ccc([N+](=O)[O-])c2onnc12 | 0.78 µM | 3.56 µM | 2.56 µM | 0.78 µM | 0.85 µM | 5.21 µM | 7.45 µM
CCCCCCCCCCCCCCCC(=O)OCC(COC(=O)CCCCCCCCCCCNc1ccc([N+](=O)[O-])c2nonc12)OC(C)=O (centres unmarked) [Compound (7), 2-Acetyloxy-3-[12-(7-nitrobenzo[1,2,5]oxadiazol-4-ylamino)-dodecanoyloxy]propyl hexadecanoate] | 4.51 µM | 75.3 µM | 38 µM | 3.82 µM | 4.56 µM | 33.1 µM | 30.2 µM
CCCCCCCCCCCCCCCCCCOCC(COC(=O)CCCCCCCCCCCNc1ccc([N+](=O)[O-])c2nonc12)OCCCCCCCCCCCCCCCCCC (centres unmarked) | 5.09 µM | 12.6 µM | 7.88 µM | 4.29 µM | 4.94 µM | 35.9 µM | 35.5 µM
